This note sets out measurements from PubChem BioAssay AID1259400 (National Center for Advancing Translational Sciences (NCATS), 2018).

Protein sequences, listed by entry. Tags and fused reporters are not part of them.
UniProt Q9HBX9, whole entry: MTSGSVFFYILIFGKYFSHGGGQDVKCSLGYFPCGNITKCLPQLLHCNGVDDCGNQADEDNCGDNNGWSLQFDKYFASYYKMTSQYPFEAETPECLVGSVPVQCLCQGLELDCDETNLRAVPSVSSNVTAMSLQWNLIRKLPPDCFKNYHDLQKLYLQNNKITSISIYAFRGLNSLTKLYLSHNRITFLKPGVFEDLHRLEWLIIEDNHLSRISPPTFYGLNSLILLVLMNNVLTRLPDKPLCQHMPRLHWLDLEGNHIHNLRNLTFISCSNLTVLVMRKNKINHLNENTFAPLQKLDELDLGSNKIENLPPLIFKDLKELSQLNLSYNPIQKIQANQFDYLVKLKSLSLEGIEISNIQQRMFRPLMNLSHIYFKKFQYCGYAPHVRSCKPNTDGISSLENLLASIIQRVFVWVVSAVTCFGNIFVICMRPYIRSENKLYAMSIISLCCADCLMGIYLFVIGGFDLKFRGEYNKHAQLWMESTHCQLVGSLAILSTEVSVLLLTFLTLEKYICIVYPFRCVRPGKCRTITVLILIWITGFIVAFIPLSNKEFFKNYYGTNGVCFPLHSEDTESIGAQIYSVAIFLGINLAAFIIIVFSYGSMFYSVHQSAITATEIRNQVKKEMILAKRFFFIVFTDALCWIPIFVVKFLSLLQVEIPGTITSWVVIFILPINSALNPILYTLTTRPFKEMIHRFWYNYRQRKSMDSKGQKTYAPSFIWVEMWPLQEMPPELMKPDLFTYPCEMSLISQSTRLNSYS

This is a selection; strong and weak results do not stand in their true shares. Calls of active or inactive are those of the source.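 Rule for the calls: active = activity change of -60% or lower, but not beyond a set lower limit; inconclusive = change between -60% and -40%, or beyond the set limit; inactive = change above -40%.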
% is set by controls: 0 for no effect and ±100 for the full control effect.

This assay deals with Relaxin receptor 1 (Homo sapiens) (UniProt Q9HBX9). Briefly: qHTS Assay for Antagonists of the Relaxin Receptor RXFP1. Conditions: HEK293-RXFP1, relaxin-stimulated cAMP HTRF, 30 min; at 57.5 µM; hits give low values. An excerpt:
The relaxin hormone is involved in the variety of biological functions in normal tissues and diseases. The role of relaxin is well-established in female reproduction and parturition, mammary gland and endometrial development, maintenance of myometrial quiescence during pregnancy. Relaxin signaling through its G protein-coupled receptor (GPCR) RXFP1 results in ECM remodeling through regulation of collagen deposition, cell invasiveness, proliferation and overall tissue homeostasis. […] Recombinant human relaxin (rhRlx) is currently being tested in clinical trials as a protective agent in congestive heart failure, in treating severe preeclampsia, and as an anti-fibrotic agent in various organs. […] Upon relaxin binding RXFP1 activation leads to the activation of adenylate cyclase (AC) via G?s. cAMP will activate PKA, which phosphorylates many signaling proteins. Thus, detection of cAMP increase is an easy and reliable indication of relaxin receptor activation. To screen for antagonists of the relaxin receptor, a HEK293T cell line stably transfected with RXFP1 was used. RXFP1 activation by relaxin in presence of various concentrations of tested compounds was assayed by changes in cAMP levels as detected with a time-resolved fluorescence energy transfer (TR-FRET) cAMP detection kit.
For the primary screening, we used HTRF(R) (Homogenous Time-Resolved Fluorescence) cAMP HiRange assay (Cisbio Bioassays, 62AM6PEJ). Presence of cAMP in the cell lysate disrupts binding between the Cryptate-labeled anti-cAMP and d2-labeled cAMP pair, leading to a decrease in TR-FRET signal. The libraries were screened at two doses (57microM and 11microM), followed by a confirmation of the hits at 7-point serial dilution in the range of final concentrations [57microM - 78nM]. Data were normalized to the controls for basal activity (buffer only) and 100% activity (5 nM porcine relaxin). The EC50 values were determined from concentration-response data modeled with the standard Hill equation. NCGC Assay Protocol Summary: HiHEK (Hawaiian HEK293 LGR7 stably transfected with human RXFP1) were grown in the following media: DMEM+10%FBS+Pen/Strep + Geneticin (1mg/ml). For the assay, the cells were seeded in DMEM+Pen/Strep (with no serum & selective antibiotics) at 2,100 cells/ 3microl/well with MultiDrop Combi dispenser (Thermo Scientific, Logan, UT) onto white tissue culture treated solid bottom1536-well plates (Greiner #789173-F) and allowed to attach/recover overnight at 37 degrees C, 5% CO2. Next, 23nl/well of compound solutions in DMSO were transferred into wells with a pintool (Kalypsis, San Diego, CA). […] EC80 (relaxin at 50pM final concentration) was dispensed to the rest of the plate except columns 1&2 which were used as a negative control (EC0, buffer only), 1microl/well also. The cells were stimulated by relaxin in the presence of compounds for 30 minutes at 37 degrees C, 5% CO2. The detection reagents were prepared individually by dilution in Lysis buffer (supplied with the assay kit) just prior to dispensing. 1microl/well of cAMP-d2 and 1microl/well anti-cAMP-Eu3+-Cryptate antibodies were added simultaneously with BioRAPTR FRDtrade mark Workstation (Beckman Coulter). The plates were incubated at ambient temperature for 30 minutes and, then, FRET signal was read on Envision plate reader (PerkinElmer, Waltham, MA), at wavelengths 340nm (excitation), 615nm & 665nm (emission of donor and acceptor channels respectively).
(In general: qHTS replaces the single test concentration by a dilution series.)
For the compound `COc1ccc(OP(C)(=O)Nc2ccc(Br)cc2)cc1` (stereo not drawn), the activity change, negative = inhibition was inactive: -5.66%.
Consider `CN(C)C(=O)c1c([N+](=O)[O-])cc([N+](=O)[O-])cc1[N+](=O)[O-]`, for which the activity change, negative = inhibition is inactive: 5.47%.
For the compound `COc1ccccc1OP(C)(=O)Nc1ccccc1Br` (stereo not drawn), the activity change, negative = inhibition was inactive: -20.2%.
Take `CC(C)(C)c1ccc(OP(C)(=O)O)cc1`: the activity change, negative = inhibition was inactive: 4.14%.
For `CP(=O)(Nc1ccc(Cl)cc1)Oc1ccc(F)cc1` (stereo not drawn) the value was inactive: -6.04%; for `CP(=O)(NC(=O)Nc1ccccc1)Oc1ccccc1` (stereo not drawn), inactive: -2.08%; for `CCc1ccc(OP(C)(=O)N2CCN(c3ccc([N+](=O)[O-])cc3)CC2)cc1` (stereo not drawn), inactive: -10.8%.
For `Cc1cc(C)cc(OP(C)(=O)Nc2ccc(SC(F)(F)F)cc2)c1` (stereo not drawn) the value was inactive: -23.5%; for `CP(=O)(Nc1ccc(SC(F)(F)F)cc1)Oc1ccc(Cl)cc1` (stereo not drawn), inactive: -15%; for `Cc1cccc(C)c1OP(C)(=O)Nc1ccc(SC(F)(F)F)cc1` (stereo not drawn), inactive: -14.1%.
With `CP(=O)(Oc1ccccc1)OC(c1ccccc1)C(F)(F)F` (stereo not drawn) the figure was inactive: 2.48%; with `CP(=O)(Nc1ccccn1)Oc1ccc(Cl)cc1` (stereo not drawn), inactive: -1.38%; with `O=[N+]([O-])c1cc([N+](=O)[O-])c(O)c([N+](=O)[O-])c1.c1ccc(Oc2ccncc2)cc1`, inactive: -12.7%.
Consider `CCOC(=O)c1ccc(NP(C)(=O)Oc2ccc(OC)cc2)cc1` (stereo not drawn), for which the activity change, negative = inhibition was inactive: -5.5%.
For `CCOP(C)(=S)SCC(=O)NC(C)C(=O)O` (stereo not drawn) the value was inactive: -10.8%; for `CP(=O)(Nc1ccccc1Br)Oc1ccccc1` (stereo not drawn), inactive: 2.25%; for `COc1ccccc1OP(C)(=O)Nc1ccccc1` (stereo not drawn), inactive: -5.57%.
For `CP(=S)(Nn1cnnc1)Oc1ccccc1` (stereo not drawn) the value was inactive: -9.88%.
With `O=[N+]([O-])c1ccc2c(c1)C=Nc1ccccc1O2` the figure was inactive: -1.52%; with `Cc1cccc(C)c1OP(C)(N)=O` (stereo not drawn), inactive: -6.8%; with `Cc1cc(C)cc(OP(C)(N)=O)c1` (stereo not drawn), inactive: -6.56%.
Regarding `COc1ccccc1OP(C)(=O)Nc1cc(Cl)ccc1C` (stereo not drawn), the activity change, negative = inhibition was inactive: -12.8%.
With `COc1ccc(OP(C)(=O)Nc2cccc(F)c2)cc1` (stereo not drawn) the figure was inactive: -10.7%.
Turning to `COc1ccccc1OP(C)(=O)Nc1ccc(C)cc1` (stereo not drawn), the activity change, negative = inhibition was inactive: 0.662%.
For the compound `Cc1ccc(NP(C)(=O)Oc2ccccc2)c(C)c1` (stereo not drawn), the activity change, negative = inhibition was inactive: 8.52%.
With `CCOC(=O)c1ccc(NP(C)(=O)Oc2ccccc2)cc1` (stereo not drawn) the figure was inactive: -1.43%.
For `CCN(CC)CCCOC(=O)C(O)(c1ccccc1)c1ccccc1` the value was inactive: -4.43%; for `CCOC(=O)c1ccc(NP(C)(=O)Oc2cc(C)cc(C)c2)cc1` (stereo not drawn), inactive: 2.93%; for `Cc1cc(C)cc(OP(C)(=O)Nc2ccc(C)cc2C)c1` (stereo not drawn), inactive: -14.1%.
For `COc1ccccc1OP(C)(=O)Nc1cccc(Br)c1` (stereo not drawn) the value was inactive: 4.26%.
As to `Cc1ccc(C)c(NP(C)(=O)Oc2ccccc2)c1` (stereo not drawn), the activity change, negative = inhibition was inactive: 4.69%.
For `Cc1cc(C)cc(OP(C)(=O)Nc2ccccn2)c1` (stereo not drawn) the value was inactive: -2.94%.
With `CP(=O)(Nc1cccc(Br)c1)Oc1ccccc1` (stereo not drawn) the figure was inactive: -2.77%.
With `O=[N+]([O-])c1cccc([N+](=O)[O-])c1` the figure was inactive: 32.2%; with `CC1=NCCc2c1[nH]c1ccccc21.O=[N+]([O-])c1cc([N+](=O)[O-])c(O)c([N+](=O)[O-])c1`, inactive: -11.9%.
For `O=[N+]([O-])c1cc([N+](=O)[O-])c(Nc2nnnn2CCO)c([N+](=O)[O-])c1`, the activity change, negative = inhibition was inactive: 7.3%.
With `CCCOc1ccc(NP(C)(=O)Oc2ccc(Cl)cc2)cc1` (stereo not drawn), the activity change, negative = inhibition was inactive: -21.4%.
For `CP(=O)(Nc1ccc(SC(F)(F)F)cc1)Oc1ccccc1` (stereo not drawn) the value was inactive: -25.4%; for `CN1CCCCC1COC(=O)C1(O)c2ccccc2CCc2ccccc21` (stereo not drawn), inactive: -24.3%.
With `COc1ccccc1OP(C)(=O)Nc1c(C)cccc1C` (stereo not drawn) the figure was inactive: 3.61%.
For `O=[N+]([O-])c1cc([N+](=O)[O-])c(-n2nnc3ccccc32)c([N+](=O)[O-])c1` the value was inactive: 16.6%; for `Cc1nc2ccc3ccccc3c2s1.O=[N+]([O-])c1cc([N+](=O)[O-])c(O)c([N+](=O)[O-])c1`, inactive: 1.44%; for `O=[N+]([O-])c1cc([N+](=O)[O-])c(-c2cnn(-c3ccccc3)c2)c([N+](=O)[O-])c1`, inactive: 9.55%.
